According to PubChem BioAssay AID836 (Columbia University Molecular Screening Center, 2007):
Only a part is listed here, and it is no random draw. Active and inactive are the calls of the source.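 How the source made its calls: active means inhibition above the batch mean plus 3 SD and confirmed as a hit by visual image inspection (cut at about 30% in these data, passing the limit was not always enough); inconclusive means above the inhibition threshold but rejected on visual inspection; inactive means the rest.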

experiment: disruptors of actin filament network in HUVEC – imaging, phalloidin staining, high-content imaging, primary screen (AID 836); conditions: HUVEC TNFa F-actin phalloidin imaging, at 2 µM, active compounds read high

| Compound | inhibition |
| --- | --- |
| CC1CCN(C(=O)Oc2c(Cl)cc(Cl)c3cccnc23)CC1 | inactive: 14.9% |
| CC(=O)N1C2C3N(C(C)=O)C1C1N(C(C)=O)C(C(N1C(C)=O)N3C(C)=O)N2C(C)=O | inactive: -5% |
| O=[N+]([O-])c1cccc2n[nH]nc12 | inactive: 3.4% |
| CCc1nc2c(n1)c1c(non1O)c1c2no[n+]1[O-] | inactive: -2.8% |
| CC(C)CC(=O)NC(Sc1ccc(Cl)cc1)C(Cl)(Cl)Cl (configuration not stated) | inactive: 10.8% |
| Oc1ccccc1CNc1ccccn1 | inactive: -0.5% |
| Cc1c2non([O-])c-2c(C)[n+](=O)[n+]1[O-] | inactive: -1.2% |
| CN1CCCC(OC(=O)C(c2ccccc2)c2ccccc2)C1 (configuration not stated) | inactive: 6% |
| CCOP(=O)(Nc1ccccc1)OCC | inactive: 10.4% |
| CCC(=O)N1C2C3N(C(=O)CC)C1C1N(C(=O)CC)C(C(N1C(=O)CC)N3C(=O)CC)N2C(=O)CC | inactive: -15.1% |
| CCOC(=O)NC(Sc1ccccc1)C(Cl)(Cl)Cl (configuration not stated) | inactive: 12.1% |
| O=P1(Nc2nc3ccc(Cl)cc3s2)COc2ccccc2O1 (configuration not stated) | inactive: -28.3% |
| c1nnnn1CCn1cnnn1 | inactive: 7.7% |
| O=P(Nc1nccs1)(c1ccccc1)c1ccccc1 | inactive: 29.1% |
| O=C(OC1CN2CCC1CC2)c1cccc(Cl)c1 (configuration not stated) | inactive: -7.7% |
| Cc1ccc(OCC(=O)OC2CN3CCC2CC3)cc1 (configuration not stated) | inactive: 12.9% |

| Compound | inhibition |
| --- | --- |
| O=P1(Nc2ccc(Br)cn2)COc2ccccc2OC1 | inactive: 30.5% |
| O=P1(Nc2ncccn2)COc2ccccc2OC1 | inactive: 8.1% |
| Cc1nn(-c2ccccc2)c2c1P(=O)(N1CCOCC1)N(C)C(c1ccccc1)=N2 (configuration not stated) | inactive: 1.5% |
| CC1(CBr)Cn2c(nc3ccccc3c2=O)S1 (configuration not stated) | inactive: 14.8% |
| Clc1n[nH]nc1-c1nn[nH][15n]1 | inactive: 9.6% |
| O=P1(Nc2ccccn2)COc2ccccc2OC1 | inactive: -56.7% |
| Cc1cccc(OCC(=O)OC2CN3CCC2CC3)c1 (configuration not stated) | inactive: -9.8% |
| O=[N+]([O-])c1ccc2c(c1)nnn2O | inactive: -19.2% |
| CCOP1(=S)c2c(C)nn(CCC#N)c2N=C(c2ccc(F)cc2)N1C (configuration not stated) | inactive: 3.8% |
| CCOP1(=S)c2c(C)nn(CCC#N)c2N=C(c2ccccc2F)N1C (configuration not stated) | inactive: -23.3% |
| CCN(CC)C(=S)SC(NC=O)C(Cl)(Cl)Cl (configuration not stated) | inactive: 14.6% |
| ClCCSc1nnc(-c2cccnc2)o1 | inactive: -20.1% |
| O=C(OC1CN2CCC1CC2)C12CC3CC(CC(C3)C1)C2 (configuration not stated) | inactive: 23.6% |
| CCC(C)N(CC(C)C)C(=S)SC(NC(C)=O)C(Cl)(Cl)Cl (configuration not stated) | inactive: -20.2% |
| O=C(COc1ccccc1)OC1CN2CCC1CC2 (configuration not stated) | inactive: 0.3% |
| COP1(=S)c2c(C)nn(CCC#N)c2N=C(c2ccc(F)cc2)N1C (configuration not stated) | inactive: -11.7% |
